Each structure is given as a SMILES string. Where “and” joins values, the source holds several entries; their conditions need not be identical. Equal values may be shown once. The list shows a part of the results, in another mix than the full data. A structure can be active in one record and inactive in another. Calls of active or inactive are those of the source. The call rests on the fitted dose curve.

We go through 29 compounds from PubChem BioAssay (Tox21).
On the % scale 0 is the no-effect control and ±100 the full control effect; potency means the concentration at half of the fitted maximal effect.

This assay can be described thus: G protein-coupled receptor (GPCR) small molecule agonists, calcium flux assay: HEK293 wild type cell line counter screen (AID 1920065). The settings on record: HEK293 WT calcium flux, fluorescence, agonist mode; series mostly up to 57.6 µM; activation: at the top concentration. The text has this:
U.S. Tox21 Program National Center for Advancing Translational Sciences [NCATS] Division of Preclinical Innovation [DPI] U.S. Environmental Protection Agency [EPA] National Institutes of Environmental Health Sciences [NIEHS] National Toxicology Program [NTP] U.S. Food and Drug Administration [FDA] Assay overview: The increased intracellular calcium release that occurred upon G protein-coupled receptor (GPCR) activation led to the frequent use of calcium flux assays to detect GPCR activation. For the purpose of studying and screening compounds that may activate GPCR, receptor-overexpressing models were typically generated using Hek293 wild-type (WT) cells. In order to eliminate the compounds that may have induced calcium release for non-specific activation, a counter-assay utilizing calcium flux on Hek293 WT cells was performed. The data were formulated in order to serve as a control for any calcium flux detection utilizing Hek293 cells with either GPCR overexpression or gene modification. The procurement of Hek293 WT cells from ATCC. Fluorescence intensity can be utilized to determine the activation of the compound in a calcium flux assay. As a counter control, this cell line was utilized to screen the Tox21 10K compound library.
Assay Protocol Summary: Hek293 cells were dispensed at 1500cells/4uL/well in 1536-well black wall/clear bottom plates using a multidrop dispenser. After the assay plates were incubated at a 37 C/5% CO2 incubator for 18 hours, 4 uL of Calcium Dye Solution was added to each well. The plates were incubated at 37 C for 1 hour. For agonist mode, 23 nL of compounds dissolved in DMSO, positive control (ATP) or DMSO only was transferred to the assay plate by a pin tool station. The fluorescence intensity in the plates was measured using FDSS 7000EX kinetic plate reader with a filter set of Ex/Em=480/540 for 3 min at 1 sec intervals. Each test compound was measured at 15 concentrations and in triplicates.
Regarding `Cc1cc([N+](=O)[O-])c(O)c([N+](=O)[O-])c1`, the “activation” value is inactive: -0.494%. For the compound `CCOP(=S)(CC)Sc1ccccc1` (centres undefined), the “activation” value was inactive: -2.61%. Consider `CCCCCCCCCCCCCC[P+](CCCCCC)(CCCCCC)CCCCCC`, for which the “activation” value is inactive: 2.51%. Same read-out and setting: for `CCCCOP(OCCCC)OCCCC` the value was inactive: 0.146%; for `CN(C(=O)Cc1ccccc1)[C@H]1CC[C@@]2(CCCO2)C[C@@H]1N1CCCC1`, inactive: 0.745% [at 26.5 µM]; for `COC(=O)Cl`, inactive: -0.367%. Still for that read-out and setting: for `COP(=S)(Cl)OC` the value was inactive: -0.396%. With `NC(=O)Nc1ccc([As](=O)(O)O)cc1`, the Potency entry was “inactive”.

Turning to `O=C1C2CC=CCC2C(=O)N1SC(Cl)(Cl)C(Cl)Cl` (centres undefined), the Potency entry was “inactive and active: 38.9 µM”.

For `CCCCO[P+](=O)OCCCC`, the Potency result is “inactive”. For the compound `O=[N+]([O-])c1ccc(S(=O)(=O)O)c([N+](=O)[O-])c1`, the “activation” value was inactive: -0.325%. With `CCC(C)(OOC(C)(C)C)OOC(C)(C)C`, the activation is inactive: 0.47% [at 11.8 µM].

As to `O=[P+](Oc1ccccc1)Oc1ccccc1`, the “activation” value was inactive: 0.0147%. Still for that read-out and setting: the figure for `N#CSc1ccc([N+](=O)[O-])cc1[N+](=O)[O-]` is inactive: 16.8%; for `ClP(Cl)c1ccccc1` it is inactive: 0.549%.

`O=C(Cl)OCCOC(=O)Cl`: the “activation” value was inactive: 0.931%. On the same count and under the same terms, the figure for `CN(C(=O)Cc1ccc(Cl)c(Cl)c1)[C@H]1CC[C@@]2(CCCO2)C[C@@H]1N1CCCC1` is inactive: 1.46% [at 26.5 µM]; for `CCOC(=O)Cl` it is inactive: 0.139%.

`O=P(Cl)(Oc1ccccc1)Oc1ccccc1`: the “activation” value is inactive: -0.0654%.

Turning to `CCNC(C)Cc1ccc2c(c1)OCO2` (centres undefined), the “activation” value is inactive: 0.172%. Still for that read-out and setting: for `O=[p+]1oc2ccccc2c2ccccc21` (centres undefined) the value was inactive: -0.196%.

Consider `CC(C)OP(=S)(OC(C)C)SCCNS(=O)(=O)c1ccccc1`, for which the “activation” value is inactive: -1.45%.

Take `CN(N=O)C(=N)N[N+](=O)[O-]`: the “activation” value is inactive: 0.192%.

As for `CCCCC(CC)CO[P+](=O)OCC(CC)CCCC` (centres undefined), the “activation” value is inactive: -0.783%. As for `O=[N+]([O-])c1ccc([N+](=O)[O-])cc1`, the “activation” value was inactive: -0.527%. Turning to `CC(C)CCCCCCCOP(OCCCCCCCC(C)C)Oc1ccccc1`, the “activation” value was inactive: 1.09%. As to `O=P(Cl)(Cl)c1ccccc1`, the “activation” value was inactive: -0.868%. Take `O=C(Cl)Oc1ccccc1`: the “activation” value was inactive: -1.05%. Still for that read-out and setting: for `CN(C(=O)Cc1cccc2occc12)[C@H]1CC[C@@]2(CCCO2)C[C@@H]1N1CCCC1` the value was inactive: 0.939%.
